# Data taken from PMC9634796, “Opioid Antagonists from the Orvinol Series as Potential Reversal Agents for Opioid Overdose” (2022).
# Chains of the proteins cited; added tags and fusions are not shown.
# UniProt P35372, whole entry: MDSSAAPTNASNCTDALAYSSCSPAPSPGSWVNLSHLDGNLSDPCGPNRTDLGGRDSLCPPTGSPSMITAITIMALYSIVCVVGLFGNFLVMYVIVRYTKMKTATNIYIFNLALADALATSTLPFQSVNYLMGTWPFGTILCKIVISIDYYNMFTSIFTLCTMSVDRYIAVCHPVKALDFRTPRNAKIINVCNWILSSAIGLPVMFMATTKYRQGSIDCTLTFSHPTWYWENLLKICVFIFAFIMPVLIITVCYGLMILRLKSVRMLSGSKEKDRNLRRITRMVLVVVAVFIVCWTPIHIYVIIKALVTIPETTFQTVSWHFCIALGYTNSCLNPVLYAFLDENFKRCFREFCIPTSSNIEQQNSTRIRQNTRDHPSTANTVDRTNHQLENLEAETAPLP
# UniProt P41143, whole entry: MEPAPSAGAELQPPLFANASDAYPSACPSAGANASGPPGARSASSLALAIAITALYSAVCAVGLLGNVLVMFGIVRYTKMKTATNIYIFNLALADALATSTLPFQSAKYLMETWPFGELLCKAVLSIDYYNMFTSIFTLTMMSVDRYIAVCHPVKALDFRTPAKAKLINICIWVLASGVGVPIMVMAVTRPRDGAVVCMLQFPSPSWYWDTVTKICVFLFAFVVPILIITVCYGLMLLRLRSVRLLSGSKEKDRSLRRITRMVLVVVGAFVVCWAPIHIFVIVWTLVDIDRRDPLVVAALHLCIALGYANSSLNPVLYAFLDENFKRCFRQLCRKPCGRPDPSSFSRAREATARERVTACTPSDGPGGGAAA
# UniProt P41145, whole entry: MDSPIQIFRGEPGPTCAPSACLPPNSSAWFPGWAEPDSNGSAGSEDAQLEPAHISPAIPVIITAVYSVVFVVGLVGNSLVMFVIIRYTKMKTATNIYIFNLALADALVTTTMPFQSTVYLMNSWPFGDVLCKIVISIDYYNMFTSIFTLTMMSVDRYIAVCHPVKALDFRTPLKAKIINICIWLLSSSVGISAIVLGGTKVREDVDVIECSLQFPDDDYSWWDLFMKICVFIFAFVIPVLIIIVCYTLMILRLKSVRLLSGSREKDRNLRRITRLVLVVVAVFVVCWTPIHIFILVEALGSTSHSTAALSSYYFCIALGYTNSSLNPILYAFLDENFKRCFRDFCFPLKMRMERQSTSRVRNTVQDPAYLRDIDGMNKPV
# Experiments:
# Experiment in all cases: […]GTPγS binding stimulation, CHO membrane homogenates
# [1] = target: hMOR (mu-opioid receptor) (Homo sapiens, UniProt P35372); details: read-out: MOR / EC50; agonist mode; pH 7.4, 100 mM NaCl, 5 mM MgCl2, 30 μM GDP, 25 °C, 60 min; HCl salt
# [2] = target: hDOR (delta-opioid receptor) (Homo sapiens, UniProt P41143); details: read-out: DOR / EC50; agonist mode; pH 7.4, 100 mM NaCl, 5 mM MgCl2, 30 μM GDP, 25 °C, 60 min; HCl salt
# [3] = target: hKOR (kappa-opioid receptor) (Homo sapiens, UniProt P41145); details: agonist mode; pH 7.4, 100 mM NaCl, 5 mM MgCl2, 30 μM GDP, 25 °C, 60 min; HCl salt
substance,measurement,setting,value
"(5α,6R,7R,14α)-2′-(17-Cyclopropylmethyl-4,5-epoxy-7,8-dihydro-3-hydroxy-6-methoxy-7β-methyl-6,14-ethano-morphinan-7-yl)-propan-2′-ol",EC50,[1],0.0993 µM
same,EC50,[2],0.0111 µM
same,EC50,[3],> 10 µM

# This is a selection: effects in other tests are not listed, and their absence says nothing.
